Patent US4608390A, “Lipoxygenase inhibiting compounds” (Abbott Laboratories, priority 1985, dated 1986)

Target: T1, 5-lipoxygenase (Rattus norvegicus, UniProt P12527)
T1 construct: 20,000×G supernatant from 7.5×10^6 homogenized RBL-1 cells; endogenous in cells; host or cells: RBL-1 cells (20,000xG supernatant of homogenate)
T1 sequence (P12527 1-673): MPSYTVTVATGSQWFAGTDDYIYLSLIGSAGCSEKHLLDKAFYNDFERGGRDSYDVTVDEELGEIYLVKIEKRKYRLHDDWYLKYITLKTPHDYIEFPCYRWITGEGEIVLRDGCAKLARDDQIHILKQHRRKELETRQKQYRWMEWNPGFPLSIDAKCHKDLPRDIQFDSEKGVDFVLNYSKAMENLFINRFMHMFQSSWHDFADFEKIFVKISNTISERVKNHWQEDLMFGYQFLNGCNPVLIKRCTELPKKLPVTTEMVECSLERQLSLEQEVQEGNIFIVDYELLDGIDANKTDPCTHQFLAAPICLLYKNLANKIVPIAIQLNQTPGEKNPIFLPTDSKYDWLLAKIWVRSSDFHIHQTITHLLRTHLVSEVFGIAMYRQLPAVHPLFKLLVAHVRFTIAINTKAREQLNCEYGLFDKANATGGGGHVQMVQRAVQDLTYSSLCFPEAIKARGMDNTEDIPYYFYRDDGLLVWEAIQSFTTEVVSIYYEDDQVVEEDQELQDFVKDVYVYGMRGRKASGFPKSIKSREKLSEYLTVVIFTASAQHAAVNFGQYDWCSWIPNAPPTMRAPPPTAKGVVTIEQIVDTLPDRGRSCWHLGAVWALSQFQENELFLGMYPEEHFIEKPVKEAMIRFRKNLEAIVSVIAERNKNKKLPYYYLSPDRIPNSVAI
Experiment: 5-Lipoxygenase IC50 determination (20,000×G supernatant of homogenized RBL-1 cells, radiolabeled arachidonic acid)
Format: biochemical
Settings: RBL-1 cell 20,000×G supernatant
Method: Reactions were initiated by the addition of radiolabeled arachidonic acid and terminated by acidification and ether extraction. Reaction products were separated from nonconverted substrate by thin layer chromatography and measured by liquid scintillatiton spectroscopy. Inhibition of 5-lipoxygenase activity was calculated as the ratio of the amounts of product formed in the presence and absence of inhibitor. […]

Compound	IC50 [nM]
CN(O)C(=O)C(=Cc1ccc2ccccc2c1)c1ccc(Br)cc1 [Example 11, N-methyl-3-(2-naphthyl)-2-(4-bromophenyl)acrylohydroxamic acid]	1800
CN(O)C(=O)C=Cc1cc2ccccc2cc1[N+](=O)[O-] [Example 13, N-methyl-3-(3-nitro-2-naphthyl)acrylohydroxamic acid]	300
